From patent EP2727916A1, “Neuroprotective multi-target directed drugs” (Universitat Autònoma de Barcelona, priority 2012, dated 2014)

By UniProt entry, the sequences of proteins in these tests, tags left out.
UniProt P19643, whole entry: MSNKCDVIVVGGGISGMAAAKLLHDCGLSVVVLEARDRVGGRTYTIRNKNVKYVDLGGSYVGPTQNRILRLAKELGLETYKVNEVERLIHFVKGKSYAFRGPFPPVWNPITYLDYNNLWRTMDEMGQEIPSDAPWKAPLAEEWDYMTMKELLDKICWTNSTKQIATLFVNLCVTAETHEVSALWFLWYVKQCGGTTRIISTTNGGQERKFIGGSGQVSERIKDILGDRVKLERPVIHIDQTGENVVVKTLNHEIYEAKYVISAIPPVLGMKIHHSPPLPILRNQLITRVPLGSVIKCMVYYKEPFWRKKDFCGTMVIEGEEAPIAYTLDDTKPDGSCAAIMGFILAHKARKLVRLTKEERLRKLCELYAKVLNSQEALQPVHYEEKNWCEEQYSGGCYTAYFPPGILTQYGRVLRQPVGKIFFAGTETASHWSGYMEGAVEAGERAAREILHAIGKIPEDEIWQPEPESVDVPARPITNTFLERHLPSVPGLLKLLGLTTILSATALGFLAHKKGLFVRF
UniProt P21396, whole entry: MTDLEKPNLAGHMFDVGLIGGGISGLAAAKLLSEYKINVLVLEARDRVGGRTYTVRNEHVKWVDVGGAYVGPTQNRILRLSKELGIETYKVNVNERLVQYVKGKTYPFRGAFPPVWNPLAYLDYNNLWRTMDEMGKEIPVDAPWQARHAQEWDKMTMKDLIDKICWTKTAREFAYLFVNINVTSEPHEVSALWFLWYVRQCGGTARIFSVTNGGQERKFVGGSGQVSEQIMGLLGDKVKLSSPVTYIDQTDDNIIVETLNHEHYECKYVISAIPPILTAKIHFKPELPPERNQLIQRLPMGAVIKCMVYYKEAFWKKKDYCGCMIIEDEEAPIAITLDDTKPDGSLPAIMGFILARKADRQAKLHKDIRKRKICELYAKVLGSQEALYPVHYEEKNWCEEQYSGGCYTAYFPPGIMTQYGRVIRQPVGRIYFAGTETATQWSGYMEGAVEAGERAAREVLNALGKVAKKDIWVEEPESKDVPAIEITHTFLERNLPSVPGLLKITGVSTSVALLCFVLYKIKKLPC

Experiments:
MAO-B = molecular target: T1, MAO-B (Rattus norvegicus, UniProt P19643); assay: Reversibility study of MAO-B inhibition (centrifugation and washing); type: biochemical; conditions: 30 min inhibition (6 at 20 µM, I-deprenyl 20 nM); three consecutive centrifugations and washings with buffer
T1 construct: from tissue; host or cells: rat brain homogenate per the methods
Experimental: (§1) Lineweaver-Burk reciprocal plots of initial velocity and substrate concentrations (0.1-1 mM) are presented. […] Lineweaver-Burk reciprocal plots of initial velocity and substrate concentrations (0.1-1 mM) are presented. […] Lineweaver-Burk reciprocal plots of initial velocity and substrate concentrations (0.1-1 mM) are presented. […] Three consecutive centrifuges were performed with buffer. […] 5 µM). All solution were made using Tris buffer pH7.4. […] 5 µM). All solution were made using Tris buffer pH7.4. […] 5 µM). All solution were made using Tris buffer pH7.4. Spectra were obtained after a Short-time incubation

MAO-A = molecular target: T2, MAO-A (Rattus norvegicus, UniProt P21396); assay: Reversibility study of MAO-A inhibition (centrifugation and washing); type: biochemical; conditions: 30 min inhibition (6 at 10 µM, clorgyline 50 nM); three consecutive centrifugations and washings with buffer
T2 construct: from tissue; host or cells: rat brain homogenate per the methods
Experimental: as §1

Compound	reversibility of MAO-B inhibition (MAO-B)	reversibility of MAO-A inhibition (MAO-A)
C#CCN(C)[C@H](C)Cc1ccccc1 [I-deprenyl, reference compound]	remained unaltered	
C#CCN(C)CCCOc1ccc(Cl)cc1Cl [clorgyline, reference compound]		remained unaltered
